Measurements: US20150105317A1
pIC50: −log10 of the molar value.

Target: T1, Human macrophage mannose receptor 1 (MRC1) (human) (UniProt P22897)
T1 sequence (looked up): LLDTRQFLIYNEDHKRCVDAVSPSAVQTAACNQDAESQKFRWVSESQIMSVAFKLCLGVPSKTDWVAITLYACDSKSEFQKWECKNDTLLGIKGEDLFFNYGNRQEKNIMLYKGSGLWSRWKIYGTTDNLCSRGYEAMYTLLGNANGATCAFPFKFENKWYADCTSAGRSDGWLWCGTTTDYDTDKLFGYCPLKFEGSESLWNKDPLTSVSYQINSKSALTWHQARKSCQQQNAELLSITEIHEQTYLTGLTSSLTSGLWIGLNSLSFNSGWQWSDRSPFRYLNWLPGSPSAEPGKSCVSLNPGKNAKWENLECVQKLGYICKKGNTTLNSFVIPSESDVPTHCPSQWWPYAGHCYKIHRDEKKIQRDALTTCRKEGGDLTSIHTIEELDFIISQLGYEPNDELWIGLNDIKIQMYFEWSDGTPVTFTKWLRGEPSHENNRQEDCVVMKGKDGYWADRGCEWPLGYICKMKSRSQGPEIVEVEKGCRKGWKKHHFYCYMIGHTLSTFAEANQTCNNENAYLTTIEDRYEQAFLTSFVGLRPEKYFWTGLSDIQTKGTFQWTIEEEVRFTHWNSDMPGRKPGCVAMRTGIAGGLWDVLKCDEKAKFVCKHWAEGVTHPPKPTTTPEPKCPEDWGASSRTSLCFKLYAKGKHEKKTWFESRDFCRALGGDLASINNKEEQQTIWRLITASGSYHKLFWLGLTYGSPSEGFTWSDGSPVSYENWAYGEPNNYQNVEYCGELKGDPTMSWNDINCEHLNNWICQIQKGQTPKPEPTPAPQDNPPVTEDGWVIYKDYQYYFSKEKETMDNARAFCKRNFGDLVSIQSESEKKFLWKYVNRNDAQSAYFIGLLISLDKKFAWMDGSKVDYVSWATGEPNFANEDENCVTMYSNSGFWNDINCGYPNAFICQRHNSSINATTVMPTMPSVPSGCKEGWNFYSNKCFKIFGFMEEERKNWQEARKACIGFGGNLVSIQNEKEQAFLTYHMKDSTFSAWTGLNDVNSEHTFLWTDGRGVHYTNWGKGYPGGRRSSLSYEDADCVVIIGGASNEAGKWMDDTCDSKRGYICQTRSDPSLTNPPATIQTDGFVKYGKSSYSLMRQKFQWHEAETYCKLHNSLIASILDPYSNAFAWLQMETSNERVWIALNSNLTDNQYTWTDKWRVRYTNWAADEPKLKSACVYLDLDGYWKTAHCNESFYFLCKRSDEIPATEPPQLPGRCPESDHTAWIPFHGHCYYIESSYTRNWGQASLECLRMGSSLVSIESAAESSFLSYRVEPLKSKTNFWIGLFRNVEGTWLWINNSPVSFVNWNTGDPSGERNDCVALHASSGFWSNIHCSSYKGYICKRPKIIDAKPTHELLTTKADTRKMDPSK
Test: Eu-mannosylated-BSA competition, captured MRC1 (Method F)

## N^εB29-6-((((2-oxo-2-((α-D-mannopyranosyl-(1→3)-[α-D-mannopyranosyl-(1→6)]-α-D-mannopyranosyl)-2-oxyethyl)amino)(2-oxo-2-((α-L-fucopyranosyloxy)-2-oxoethyl)amino)ethyl)amino)acetamido)-6-oxohexanoyl Human Insulin (ligand)
  pIC50: 8.10
